Data as given in patent publication US20210330611A1, “THERAPY FOR NEUROLOGICAL DISEASES/DISORDERS” (priority 2020, published 2021).

Experiments:
[1] = tested on: fibrin-induced microglia activation; assay: Image-based assay of fibrin-induced microglia activation (HTS and dose response); type: cell-based, rat
[2] = tested on: LPS-induced microglia activation; assay: Image-based assay of LPS-induced microglia activation (HTS and dose response); type: cell-based, rat
[3] = tested on: fibrin- and LPS-induced microglia activation
primary rat microglia [4] = assay: Cell toxicity (dead cells, size <150 μm2) in LPS assay
primary rat microglia [5] = assay: Cell toxicity (dead cells, size <150 μm2) in coated fibrin (cFib) assay;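 note: share of dead cells sized under 150 µm2 at 10 µM in fibrin-stimulated microglia HTS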

## NC(=O)Nc1ccc([As](=O)(O)O)cc1
[1]; primary HTS, 10 μM, fibrin-stimulated primary microglia
  Fibrin % inhibition: −4%
[2]; primary HTS, 10 μM, LPS-stimulated primary microglia
  LPS % inhibition: 17%
[3]; primary HTS, 10 μM
  Quadrant (FIG. 5b): Q4
Primary rat microglia [4]; primary HTS, 10 μM, LPS assay, dead cells size <150 μm2
  LPS % cell toxicity: 0%
Primary rat microglia [5]; primary HTS, 10 μM, fibrin assay, dead cells size <150 μm2
  Fibrin % cell toxicity: 1%

## O=C(OC1CN2CCC1CC2)c1ccccc1 (stereo not shown)
[1]; primary microglia HTS, fibrin stimulation, compounds at 10 μM
  Fibrin % inhibition: −55%
[2]; primary microglia HTS, LPS stimulation, compounds at 10 μM
  LPS % inhibition: 5%
[3]; quadrant by fibrin and LPS inhibition, HTS at 10 μM
  Quadrant (FIG. 5b): Q4
Primary rat microglia [4]; primary microglia HTS, LPS assay, dead cells (size <150 μm2)
  LPS % cell toxicity: 0%
Primary rat microglia [5]; primary microglia HTS, fibrin assay, dead cells (size <150 μm2)
  Fibrin % cell toxicity: 1%

## Sodium Monofluorophosphate
[3]; classification by fibrin and LPS inhibition in HTS
  Quadrant (FIG. 5b): Q4
Primary rat microglia [4]; primary microglia HTS, LPS stimulation, cell size <150 μm2 as marker of toxicity
  LPS % cell toxicity: 0%
Primary rat microglia [5]; primary microglia HTS, fibrin stimulation, cell size <150 μm2 as marker of toxicity
  Fibrin % cell toxicity: 0%

Read-outs that look alike come from different tables or passages of the source.
